This is an account of results in patent publication US9675579B2, “Tetrahydrocannabivarin for use in the treatment of nausea and vomiting” (GW Pharma Limited, priority 2013, dated 2017).

One series has as its system Sprague-Dawley rats. Put plainly: Conditioned gaping to saccharin paired with the compound (Example 1). Particulars: i.p., all doses tested (SR 10, 20; AM251 10; THCV 10, 20; CBDV 10, 200 mg/kg), drug-free test 72 h after conditioning, vs VEH and other groups.
The subject of another series is rats. Particulars: McLaughlin et al., 2005; cited from earlier work.

For AM251, the “conditioned gaping reactions (nausea-like reactions) elicited by 0.1% saccharin previously paired with the compound” value with Sprague-Dawley rats is recorded as “produced significantly more conditioned gaping when paired with saccharin solution than any of the other compounds”. In the series on rats, the “conditioned gaping produced by the compound” value was “produced conditioned gaping in rats”.
